According to ChEMBL document CHEMBL5653605, “Reduced VEGF production, angiogenesis, and vascular regrowth contribute to the antitumor properties of dual mTORC1/mTORC2 inhibitors” (Cancer Res, 2011):
The source made the active and inactive calls. No cut-off for these calls is given here.

Sequences of proteins named here, by UniProt entry; tags and fusion partners are left off. A change or cut given only in a name is not applied to a line headed by its entry.
UniProt O60331: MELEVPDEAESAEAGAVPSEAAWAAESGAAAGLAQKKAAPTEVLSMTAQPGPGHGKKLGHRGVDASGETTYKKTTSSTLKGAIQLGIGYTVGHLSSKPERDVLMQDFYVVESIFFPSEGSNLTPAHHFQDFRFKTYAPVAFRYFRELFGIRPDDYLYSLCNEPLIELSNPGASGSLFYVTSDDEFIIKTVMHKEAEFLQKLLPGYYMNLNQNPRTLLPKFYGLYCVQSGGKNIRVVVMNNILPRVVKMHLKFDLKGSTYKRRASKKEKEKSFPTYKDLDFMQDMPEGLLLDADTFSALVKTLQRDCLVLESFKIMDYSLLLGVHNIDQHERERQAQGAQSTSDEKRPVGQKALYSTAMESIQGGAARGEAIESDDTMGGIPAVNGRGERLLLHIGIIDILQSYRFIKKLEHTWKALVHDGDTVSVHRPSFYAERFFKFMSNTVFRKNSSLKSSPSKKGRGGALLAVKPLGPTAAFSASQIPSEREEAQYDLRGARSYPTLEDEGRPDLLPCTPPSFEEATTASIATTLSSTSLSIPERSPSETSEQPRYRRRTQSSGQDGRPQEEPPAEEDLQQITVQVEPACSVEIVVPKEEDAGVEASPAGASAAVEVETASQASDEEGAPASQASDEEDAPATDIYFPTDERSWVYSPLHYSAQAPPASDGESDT

Target: Phosphatidylinositol 4-phosphate 5-kinase type-1 gamma (Homo sapiens) (UniProt O60331)
Assay: Inhibition of PIP5Kgamma (unknown origin)

SMILES: COc1cccc2cc(-c3nc([C@H]4CC[C@H](C(=O)O)CC4)n4ncnc(N)c34)[nH]c12 [OSI-027]
- inhibition: Active
